This test addresses recombinant pneumococcal GAPDH (glyceraldehyde 3-phosphate dehydrogenase) fused to a His6-tag at the N-terminus (S. pneumoniae) (UniProt Q8CWN6). The experiment in a line: ELISA; 100 ug peptidoglycan-only pneumococcal sacculi coated on 96-well plate; GAPDH 10 ug/ml in TBS-C (50 mM Tris pH 8.0, 100 mM NaCl, 2 mM CaCl2) 1 h RT, or none; normal human serum 1:25 1 h RT; bound C1q detected with rabbit anti-C1q, chemiluminescence. On the technique in general: ELISA stands for enzyme-linked immunosorbent assay.

Amino acid sequences for entries named in this document (tags omitted). Residues count along the entry.
UniProt P02745, 23-245: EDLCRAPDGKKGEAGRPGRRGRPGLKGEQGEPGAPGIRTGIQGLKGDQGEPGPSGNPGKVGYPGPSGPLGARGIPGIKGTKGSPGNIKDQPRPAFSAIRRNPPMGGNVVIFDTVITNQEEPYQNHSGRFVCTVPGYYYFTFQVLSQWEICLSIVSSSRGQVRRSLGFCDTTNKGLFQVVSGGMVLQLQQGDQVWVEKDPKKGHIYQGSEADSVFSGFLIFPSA
human complement factor C1q, UniProt P02746, 28-253: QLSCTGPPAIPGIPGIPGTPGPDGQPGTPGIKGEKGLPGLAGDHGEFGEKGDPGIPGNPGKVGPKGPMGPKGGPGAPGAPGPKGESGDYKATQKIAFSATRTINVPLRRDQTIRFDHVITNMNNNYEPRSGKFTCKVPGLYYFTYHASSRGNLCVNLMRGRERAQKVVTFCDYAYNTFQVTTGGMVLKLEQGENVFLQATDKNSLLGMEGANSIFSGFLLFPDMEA
human complement factor C1q, UniProt P02747, 29-245: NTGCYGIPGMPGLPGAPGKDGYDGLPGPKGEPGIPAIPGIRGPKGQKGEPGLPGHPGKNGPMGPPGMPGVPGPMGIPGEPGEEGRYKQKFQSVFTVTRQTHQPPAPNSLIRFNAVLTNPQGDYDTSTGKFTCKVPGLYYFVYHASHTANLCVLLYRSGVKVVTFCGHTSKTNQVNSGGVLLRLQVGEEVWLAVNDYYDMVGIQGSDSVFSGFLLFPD

Regarding “human complement factor C1q (from UniProt P02745 23-245; P02746 28-253; P02747 29-245) (complex)”, the fold C1q deposition against sacculi without GAPDH was found to be 5 fold.
